Laboratory results reported in ChEMBL document CHEMBL5537207, “Discovery and Characterization of Selective, First-in-Class Inhibitors of Citron Kinase” (J Med Chem, 2024).
The source made the active and inactive calls. The calls are words filed in the database; no cut-off is given here.

By UniProt entry, the sequences of proteins in these tests, tags left out. Where a name states a change or a piece, a line headed by the entry shows the natural chain unless it says otherwise.
UniProt Q5VT25: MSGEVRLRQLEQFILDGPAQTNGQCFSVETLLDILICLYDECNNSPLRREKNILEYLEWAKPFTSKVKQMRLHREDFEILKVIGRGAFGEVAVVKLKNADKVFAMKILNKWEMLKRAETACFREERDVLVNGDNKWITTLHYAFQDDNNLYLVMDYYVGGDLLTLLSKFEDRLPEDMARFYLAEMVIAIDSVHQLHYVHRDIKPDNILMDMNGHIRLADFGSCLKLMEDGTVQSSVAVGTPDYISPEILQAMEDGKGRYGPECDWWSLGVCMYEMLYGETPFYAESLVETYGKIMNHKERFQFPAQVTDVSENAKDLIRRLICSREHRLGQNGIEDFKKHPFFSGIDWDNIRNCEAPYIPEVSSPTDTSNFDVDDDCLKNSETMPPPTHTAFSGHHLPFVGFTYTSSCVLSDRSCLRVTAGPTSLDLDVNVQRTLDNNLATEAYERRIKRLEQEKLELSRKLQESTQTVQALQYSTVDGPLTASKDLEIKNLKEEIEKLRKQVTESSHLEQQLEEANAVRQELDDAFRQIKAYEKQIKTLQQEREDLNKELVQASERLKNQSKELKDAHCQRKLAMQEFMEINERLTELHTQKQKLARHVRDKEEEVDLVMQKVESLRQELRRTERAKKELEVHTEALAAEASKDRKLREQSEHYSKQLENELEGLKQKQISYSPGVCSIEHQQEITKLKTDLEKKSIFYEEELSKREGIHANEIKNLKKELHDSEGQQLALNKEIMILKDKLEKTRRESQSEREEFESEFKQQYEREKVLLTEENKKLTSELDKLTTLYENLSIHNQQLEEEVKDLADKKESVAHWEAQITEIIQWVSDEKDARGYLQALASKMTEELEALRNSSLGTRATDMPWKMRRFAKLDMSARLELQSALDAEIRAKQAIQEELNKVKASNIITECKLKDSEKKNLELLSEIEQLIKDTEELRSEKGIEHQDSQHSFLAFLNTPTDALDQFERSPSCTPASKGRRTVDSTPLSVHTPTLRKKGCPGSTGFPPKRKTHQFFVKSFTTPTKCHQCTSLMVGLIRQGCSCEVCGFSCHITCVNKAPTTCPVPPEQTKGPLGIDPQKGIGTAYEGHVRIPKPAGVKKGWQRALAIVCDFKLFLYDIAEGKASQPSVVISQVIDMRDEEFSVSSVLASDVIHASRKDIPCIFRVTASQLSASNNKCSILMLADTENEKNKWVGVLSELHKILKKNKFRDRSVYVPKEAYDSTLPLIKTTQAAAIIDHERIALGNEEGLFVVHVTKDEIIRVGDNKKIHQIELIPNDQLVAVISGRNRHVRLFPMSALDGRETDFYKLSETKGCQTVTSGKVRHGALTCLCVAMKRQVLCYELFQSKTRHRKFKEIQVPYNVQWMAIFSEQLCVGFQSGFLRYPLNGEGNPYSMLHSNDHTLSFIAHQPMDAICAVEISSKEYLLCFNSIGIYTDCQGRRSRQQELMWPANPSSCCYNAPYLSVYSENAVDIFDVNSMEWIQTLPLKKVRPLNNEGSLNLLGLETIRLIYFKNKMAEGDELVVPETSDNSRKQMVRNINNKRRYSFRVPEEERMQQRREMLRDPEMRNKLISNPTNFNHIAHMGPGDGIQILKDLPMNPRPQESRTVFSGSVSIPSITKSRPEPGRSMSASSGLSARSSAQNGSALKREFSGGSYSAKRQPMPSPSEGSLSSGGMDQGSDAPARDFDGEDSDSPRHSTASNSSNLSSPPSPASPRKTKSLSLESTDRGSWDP
UniProt P31749: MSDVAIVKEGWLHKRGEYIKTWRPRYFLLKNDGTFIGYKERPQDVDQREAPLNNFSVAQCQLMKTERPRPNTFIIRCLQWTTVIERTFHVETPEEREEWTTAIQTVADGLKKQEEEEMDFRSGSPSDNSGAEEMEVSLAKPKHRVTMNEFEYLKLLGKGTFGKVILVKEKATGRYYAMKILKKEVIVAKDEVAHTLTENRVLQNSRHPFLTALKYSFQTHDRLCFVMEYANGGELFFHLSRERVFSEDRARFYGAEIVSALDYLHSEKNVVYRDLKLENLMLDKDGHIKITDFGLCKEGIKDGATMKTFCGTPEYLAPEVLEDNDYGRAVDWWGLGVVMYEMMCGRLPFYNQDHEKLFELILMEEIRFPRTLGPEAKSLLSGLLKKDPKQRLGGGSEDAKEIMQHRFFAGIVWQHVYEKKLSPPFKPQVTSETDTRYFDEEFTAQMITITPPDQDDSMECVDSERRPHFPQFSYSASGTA
UniProt O75116: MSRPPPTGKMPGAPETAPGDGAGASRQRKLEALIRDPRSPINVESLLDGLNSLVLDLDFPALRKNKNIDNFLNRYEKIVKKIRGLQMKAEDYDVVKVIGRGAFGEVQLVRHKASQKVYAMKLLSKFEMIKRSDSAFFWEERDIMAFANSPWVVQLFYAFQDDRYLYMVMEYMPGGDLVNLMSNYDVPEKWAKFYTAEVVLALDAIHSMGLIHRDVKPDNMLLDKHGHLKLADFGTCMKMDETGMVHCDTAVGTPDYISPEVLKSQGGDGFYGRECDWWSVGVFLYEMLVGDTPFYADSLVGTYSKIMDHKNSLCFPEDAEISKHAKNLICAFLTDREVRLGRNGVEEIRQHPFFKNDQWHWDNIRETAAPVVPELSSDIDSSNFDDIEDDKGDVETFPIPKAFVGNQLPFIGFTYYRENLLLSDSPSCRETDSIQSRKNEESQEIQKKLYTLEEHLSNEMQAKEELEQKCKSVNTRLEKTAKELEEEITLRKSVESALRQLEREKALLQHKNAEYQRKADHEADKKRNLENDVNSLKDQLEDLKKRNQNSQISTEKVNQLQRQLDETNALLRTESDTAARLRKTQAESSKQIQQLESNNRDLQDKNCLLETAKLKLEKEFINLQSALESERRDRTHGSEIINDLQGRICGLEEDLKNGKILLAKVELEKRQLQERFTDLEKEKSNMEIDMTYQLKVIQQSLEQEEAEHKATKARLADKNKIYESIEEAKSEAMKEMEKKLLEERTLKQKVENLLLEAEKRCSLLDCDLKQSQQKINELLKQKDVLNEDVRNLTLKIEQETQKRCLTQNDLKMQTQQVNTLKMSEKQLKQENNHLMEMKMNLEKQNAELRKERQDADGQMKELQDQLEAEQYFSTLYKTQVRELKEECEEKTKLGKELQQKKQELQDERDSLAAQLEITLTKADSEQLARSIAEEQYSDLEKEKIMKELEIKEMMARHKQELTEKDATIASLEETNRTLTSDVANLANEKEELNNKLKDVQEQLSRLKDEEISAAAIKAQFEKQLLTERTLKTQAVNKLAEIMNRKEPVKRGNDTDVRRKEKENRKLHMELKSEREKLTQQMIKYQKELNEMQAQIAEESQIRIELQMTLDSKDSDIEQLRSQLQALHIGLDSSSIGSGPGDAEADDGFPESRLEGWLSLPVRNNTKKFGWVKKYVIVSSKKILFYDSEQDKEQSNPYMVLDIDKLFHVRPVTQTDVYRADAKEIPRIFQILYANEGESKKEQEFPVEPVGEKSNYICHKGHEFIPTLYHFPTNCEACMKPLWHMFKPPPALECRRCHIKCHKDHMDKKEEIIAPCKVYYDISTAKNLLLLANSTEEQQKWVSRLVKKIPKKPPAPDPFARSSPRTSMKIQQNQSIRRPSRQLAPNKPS

Key:
HeLa [1] = assay: Effect on cell cycle progression in human HeLa cell line expressing tFUCCI(CA)s fluorescent reporters assessed as accumulation of cells at G2/M1 phase (RFP/GFP positive) at 2 uM measured after 48 hrs by Cell cycle progression assay; type: functional, cell-based
HeLa [2] = assay: Effect on cell cycle progression in human HeLa cell line expressing tFUCCI(CA)s fluorescent reporters assessed as accumulation of cells at S phase (GFP positive) at 2 uM measured after 48 hrs by Cell cycle progression assay; type: functional, cell-based
HeLa [3] = assay: Effect on cell cycle progression in human HeLa cell line expressing tFUCCI(CA)s fluorescent reporters assessed as accumulation of cells at G1 phase (RFP positive) at 2 uM measured after 48 hrs by Cell cycle progression assay; type: functional, cell-based
HeLa [4] = assay: Antiproliferative activity against human HeLa cells assessed as cell viability at 10 uM incubated for 48 hrs by CellTiter-Glo cell viability assay; type: functional, cell-based
HeLa [5] = assay: Induction of multinucleation in human HeLa cells assessed as increase in live nuclei to cell ratio at 2 uM incubated for 48 hrs by Cytokinesis assay; type: functional, cell-based
HeLa [6] = assay: Antiproliferative activity against human HeLa cells assessed as cell viability at 10 uM incubated for 164 hrs by CellTiter-Glo cell viability assay relative to Staurosporine; type: functional, cell-based
[7] = target: cAMP-dependent protein kinase catalytic subunit beta (Homo sapiens) (UniProt P22694); assay: Inhibition of human full length PKAbeta using KEAKEKRQEQIAKR substrate at 1 uM incubated for 40 mins by [33P]-gammaATP based Topcount scintillation counting analysis relative to control
[8] = target: cAMP-dependent protein kinase catalytic subunit alpha (Homo sapiens) (UniProt P17612); assay: Inhibition of human full length PKAalpha expressed in Escherichia coli using peptide substrate at 1 uM incubated for 15 mins by [33P]-gammaATP based Topcount scintillation counting analysis relative to control
[9] = target: Serine/threonine-protein kinase MRCK alpha (Homo sapiens) (UniProt Q5VT25); assay: Inhibition of human recombinant MRCKalpha (1 to 549) using KKRNRTLTV as substrate at 1 uM incubated for 40 mins by radiometric scintillation counting analysis relative to control
[10] = target: RAC-alpha serine/threonine-protein kinase (Homo sapiens) (UniProt P31749); assay: Inhibition of human full length AKT1 using GRPRTSSFAEGKK as substrate at 1 uM incubated for 40 mins by [33P]-gammaATP based Topcount scintillation counting analysis relative to control
[11] = target: T1, Myotonin-protein kinase (Homo sapiens) (UniProt Q09013); assay: Inhibition of human recombinant DMPK (1 to 549) using KKSRGDYMTMQIG as substrate at 1 uM incubated for 40 mins by radiometric scintillation counting analysis relative to control
T1 sequence (whole entry): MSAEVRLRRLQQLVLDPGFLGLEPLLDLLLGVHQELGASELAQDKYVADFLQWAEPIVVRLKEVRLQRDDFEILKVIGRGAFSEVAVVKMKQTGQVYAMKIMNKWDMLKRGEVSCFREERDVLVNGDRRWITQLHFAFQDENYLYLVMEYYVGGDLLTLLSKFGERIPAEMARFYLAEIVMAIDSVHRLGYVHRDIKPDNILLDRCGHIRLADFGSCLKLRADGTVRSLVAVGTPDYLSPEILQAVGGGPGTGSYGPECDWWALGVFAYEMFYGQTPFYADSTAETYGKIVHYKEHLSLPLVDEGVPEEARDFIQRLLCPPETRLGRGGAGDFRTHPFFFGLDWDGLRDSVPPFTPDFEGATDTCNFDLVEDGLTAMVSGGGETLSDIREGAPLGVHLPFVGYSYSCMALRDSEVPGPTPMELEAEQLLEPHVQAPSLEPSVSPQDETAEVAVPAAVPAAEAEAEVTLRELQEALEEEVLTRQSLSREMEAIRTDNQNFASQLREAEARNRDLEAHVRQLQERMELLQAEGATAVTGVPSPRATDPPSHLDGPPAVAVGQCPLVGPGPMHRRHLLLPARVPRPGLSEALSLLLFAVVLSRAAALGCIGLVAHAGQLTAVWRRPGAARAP

[12] = target: Rho-associated protein kinase 2 (Homo sapiens) (UniProt O75116); assay: Inhibition of human recombinant ROCK2 (11 to 552) using KEAKEKRQEQIAKR as substrate at 1 uM incubated for 40 mins by [33P]-gammaATP based Topcount scintillation counting analysis relative to control
HeLa [13] = assay: Induction of multinucleation in human HeLa cells assessed as increase in live nuclei to cell ratio at 20 uM incubated for 48 hrs by Cytokinesis assay; type: functional, cell-based
[14] = system: PRISM Panel (900 carcinoma cell lines); assay: Antiproliferative activity against human PRISM Panel (900 carcinoma cell lines) assessed as cell viability by standard PRISM assay; type: functional, cell-based

Cc1cc2c(-c3ccc(NC(=O)[C@H](N)CC(C)(C)C)cc3C)ccnc2[nH]1
Activity (HeLa [1]): inactive
Activity (HeLa [2]): inactive
Activity (HeLa [3]): inactive
Activity (HeLa [4]): Active
Activity (HeLa [5]): inactive
Activity (HeLa [6]): inactive

CC(C)C[C@@H](N)C(=O)Nc1ccc(-c2ccnc3[nH]ccc23)cc1
inhibition [7]: inactive
inhibition [8]: inactive
inhibition [9]: inactive
inhibition [10]: inactive
inhibition [11]: inactive
inhibition [12]: inactive

Cc1ccc2c(c1)C(=O)[C@]1(O)CCN(c3ccc(N)cc3)C1=N2
Activity (HeLa [13]): Active

Cc1cc2c(-c3ccc(NC(=O)[C@H](N)CC(C)(C)C)cc3C)cncc2[nH]1
Activity (HeLa [4]): Active
Activity (HeLa [5]): inactive
Activity (HeLa [6]): inactive

Cc1cc2c(-c3ccc(NC(=O)[C@H](N)[C@@H](O)C(C)C)cc3C)ccnc2[nH]1
Activity [14]: inactive
